# Conditions: rats, oral doses ≤ 60 mg/kg
smiles,measurement,value
CC(C)NC(=O)[C@H]1CC[C@@H](n2/c(=N/C(=O)c3ccc(F)cc3)[nH]c3ccc(CN4CCC(C(C)(C)O)CC4)cc32)CC1 [TSR-011],Effects in modified Irwin and respiratory safety study,did not exhibit any effects
